Values quoted from earlier work as cited in paper PMC6800033 (Analytical biochemistry, 2019).

Target: TEAD
Conditions: read-out: Kd by ITC; cited from earlier work

CSCC[C@H](NC(=O)[C@@H](NC(=O)[C@H](C)NC(=O)[C@H](CC(N)=O)NC(=O)[C@H](Cc1ccccc1)NC(=O)[C@H](CC(C)C)NC(=O)[C@H](C)NC(=O)[C@H](CCC(=O)O)NC(=O)[C@H](CC(C)C)NC(=O)[C@H](CC(=O)O)NC(=O)[C@@H](NC(=O)[C@@H](N)CCC(=O)O)[C@@H](C)O)C(C)C)C(=O)N[C@@H](CC(N)=O)C(=O)N1CCC[C@H]1C(=O)N[C@@H](CCCCN)C(=O)N[C@H](C(=O)N[C@@H](C)C(=O)N[C@@H](CC(N)=O)C(=O)N[C@H](C(=O)N1CCC[C@H]1C(=O)N[C@@H](CCC(N)=O)C(=O)N[C@H](C(=O)N[C@H](C(=O)N1CCC[C@H]1C(=O)N[C@@H](CCSC)C(=O)N[C@@H](CCCNC(=N)N)C(=O)N[C@@H](CC(C)C)C(=O)N[C@@H](CCCNC(=N)N)C(=O)N[C@@H](CCCCN)C(=O)N[C@@H](CC(C)C)C(=O)N1CCC[C@H]1C(=O)N[C@@H](CC(=O)O)C(=O)N[C@@H](CO)C(=O)N[C@@H](Cc1ccccc1)C(=O)N[C@@H](Cc1ccccc1)C(=O)N[C@@H](CCCCN)C(=O)N1CCC[C@H]1C(=O)N1CCC[C@H]1C(=O)N[C@@H](CCC(=O)O)C(=O)O)C(C)C)[C@@H](C)O)C(C)C)[C@@H](C)O [YAP^62–100]
Kd: 96 nM
